Laboratory results from patent publication US11058780B2, “Palpable marker composition” (TECHNICAL UNIVERSITY OF DENMARK, priority 2016, dated 2021).

Assay: Solubility in ethanol and doping of iodo-SAIB into SAIB
Assay type: physicochemical

With sucrose acetate isobutyrate [SAIB] the solubility in ethanol was “highly soluble”.
